{
  "source": "patent US20050153951A1",
  "about": "“Neurotrophic pyrrolidines and piperidines, and related compositions and methods” (priority 1999, published 2005)",
  "key": {"[1]": {"test_system": "Primary Rat Hippocampal Cells", "assay": "Neurite outgrowth assay, primary rat hippocampal cells", "format": "cell-based", "settings": "MAP-2 immunofluorescence; active if greater than mean DMSO-treated control on the same plate", "method": "Hippocampal cells are dissected from the brains of embryonic day 18 rat pups and dissociated with trypsin (1 mg/mL) and trituration. Cells are seeded at 30,000 cells/well in 96-well plates filled with 100 μL MEM and 10% FBS. At 7 days in culture, cells are fixed with 4% paraformaldehyde and immuno-fluorescence is performed.\n(§1) Cultures are incubated with normal horse serum (1:50; Vector Labs) for about 20 min, rinsed and then incubated with primary antibody, microtubule associated-protein 2 (anti-mouse MAP-2; 1:1000; Chemicon) for about 2 h at about RT. Following primary antibody, cultures are rinsed and incubated with fluorescein anti-mouse IgG (rat absorbed; 1:50; Vector Labs) for about 1 h. After fluorescein incubation, the cultures are rinsed and read in PBS on a fluorescent plate reader (excitation: 485 nm; emission: 530 nm). […] The response to test compound is reported as percent of DMSO-treated control."}, "[2]": {"test_system": "Human M17 Neuroblastoma Cells", "assay": "Neurite outgrowth assay, M17 neuroblastoma cells", "format": "cell-based", "settings": "MAP-2 immunofluorescence; active if greater than mean DMSO-treated control on the same plate", "method": "M17 human neuroblastoma cells are cultured in 1:1 ratio of EMEM and Hams's F12 with 1×NEM and 10% FBS. The culture media contains 1×PSN antibiotic and is exchanged every other day, and the cells are passed in log phase near confluence.\nas §1"}, "ALS patients": {"test_system": "ALS patients", "settings": "cited from earlier work"}},
  "data": [
    {"smiles": "CCC(C)(C)C(=O)C(=O)N1CCCC1c1csc([C@@H]2CCCN2C(=O)C(=O)C(C)(C)CC)n1", "note": "(stereo partly drawn) [Compound 43]", "values": [
      {"measurement": "Rat Hippocampal Cell Response", "setting": "[1]", "result": "120% of DMSO-treated control"},
      {"measurement": "M17 Cell Response", "setting": "[2]", "result": "108% of DMSO-treated control"}
    ]},
    {"smiles": "Nc1nc2ccc(OC(F)(F)F)cc2s1", "note": "[Riluzole]", "values": [
      {"measurement": "rate of survival of ALS patients", "setting": "ALS patients", "result": "increase the rate of survival"}
    ]}
  ]
}
